Tested on: liver
Assay: CCl4 induced hepatotoxicity in rats (serum AST/ALT)
Type: in vivo
Conditions: rat plasma, 100 mg/kg ip 24 h prior, 48 h after 2.9 g/kg CCl4
Method: In vivo experiments were performed to determine if alpha-TS administration protects the liver from chemical toxicity. The liver is the target organ for CCl4. CCl4 is a hepatotoxic agent that induces centrilobular liver necrosis through its metabolism to free radicals. Male Sprague-Dawley rats were given an intraperitoneal dose (100 mg/kg) of a tocopherol analog 24 hours prior to a CCl4 challenge (2.9g/kg given by oral garage). Forty eight hours after the challenge, the rats were sacrificed and the levels of aspartate aminotransferase (AST) and alanine aminotransferase (ALT) were measured.
As discussed above, SGOT levels provide a clinical assessment of hepatotoxicity (liver damage).
Succinate analogs were administered to male Sprague-Dawley rats 20 hours prior to a 1 g CCl4 /kg body weight oral challenge and the AST and ALT serum enzyme levels were measured 48 hours after the challenge.
Similar to the experiments were described above, the ionizable congeners were administered to Sprague-Dawley rats by i.p. injection of a 100 mg ionizable congener/kg body weight dose 20 hours prior to oral administration of a 1 g/kg dose of CCl4, and the AST and ALT levels were measured 48 hours after the CCl4 challenge.

Question: How did the ALT turn out when `Cc1c(C)c2c(c(C)c1O)CC[C@@](C)(CCC[C@H](C)CCC[C@H](C)CCCC(C)C)O2` [alpha-T, d-alpha-tocopherol, reference compound] was run?
Answer: Its ALT is 4,678 ± 290 Units/L.

Question: What about the AST of the same compound?
Answer: Its AST is 17,330 ± 7220 Units/L.
